Literature values as cited in patent publication US20140107050A1, “INCREASING BIOAVAILABILITY OF N-COUMAROYLDOPAMINE THROUGH CO-ADMINISTRATION WITH A CATECHOL-O-MEHTYLTRANSFERASE (COMT) INHIBITOR” (Redefine Nutrition, LLC, priority 2012, published 2014).

Biological target: T1, catechol-o-methyltransferase (COMT) (Homo sapiens, UniProt P21964)
T1 sequence (P21964 1-271): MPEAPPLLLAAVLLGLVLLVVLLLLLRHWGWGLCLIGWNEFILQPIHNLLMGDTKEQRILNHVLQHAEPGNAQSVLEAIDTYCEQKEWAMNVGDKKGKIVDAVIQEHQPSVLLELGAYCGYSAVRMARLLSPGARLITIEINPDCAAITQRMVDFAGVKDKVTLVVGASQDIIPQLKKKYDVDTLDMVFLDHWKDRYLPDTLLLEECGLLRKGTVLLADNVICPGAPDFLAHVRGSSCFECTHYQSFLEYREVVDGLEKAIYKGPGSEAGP
Settings: values taken from cited literature; read-out: half maximal inhibitory concentration (IC50) for COMT inhibition

In the case of `O=C(O[C@@H]1Cc2c(O)cc(O)cc2O[C@@H]1c1cc(O)c(O)c(O)c1)c1cc(O)c(O)c(O)c1` [Epigallocatechin gallate (EGCG), Epigallocatechin gallate], the IC50 is listed as ~200 nM.
